Assays:
[1] = molecular target: T1, mMC1R (Mus musculus, UniProt Q01727); assay: mMC1R | Agonist EC50 (nM)
[2] = molecular target: T1, mMC1R; assay: mMC1R | IC50 (nM) | Mean ± SEM
[3] = molecular target: mMC4R (Mus musculus, UniProt P56450); assay: mMC4R | IC50 (nM) | Mean±SEM; conditions: read-out: mMC4R | IC50 (nM) | Mean±SEM

Sequences of proteins named here, by UniProt entry; tags and fusion partners are left off. A change or cut given only in a name is not applied to a line headed by its entry.
UniProt Q01727: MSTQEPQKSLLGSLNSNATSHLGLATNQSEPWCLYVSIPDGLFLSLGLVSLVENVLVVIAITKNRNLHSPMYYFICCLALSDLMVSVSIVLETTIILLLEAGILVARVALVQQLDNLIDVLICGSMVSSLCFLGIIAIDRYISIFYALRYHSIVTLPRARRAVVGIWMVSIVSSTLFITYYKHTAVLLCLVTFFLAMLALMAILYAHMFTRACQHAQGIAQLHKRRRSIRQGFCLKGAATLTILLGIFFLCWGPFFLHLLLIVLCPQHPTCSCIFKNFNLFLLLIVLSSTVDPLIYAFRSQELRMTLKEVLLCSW
UniProt P56450, whole entry, looked up: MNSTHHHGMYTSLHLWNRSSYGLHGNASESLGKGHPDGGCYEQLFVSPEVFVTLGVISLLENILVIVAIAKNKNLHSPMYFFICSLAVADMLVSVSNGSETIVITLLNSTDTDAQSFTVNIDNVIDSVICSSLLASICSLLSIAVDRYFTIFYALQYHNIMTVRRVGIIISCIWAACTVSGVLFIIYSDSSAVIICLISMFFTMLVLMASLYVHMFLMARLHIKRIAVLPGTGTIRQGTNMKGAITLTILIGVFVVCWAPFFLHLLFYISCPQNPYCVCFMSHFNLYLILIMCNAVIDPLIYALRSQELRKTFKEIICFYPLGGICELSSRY

## CC(=O)N[C@@H](Cc1c[nH]cn1)C(=O)N[C@H](Cc1ccccc1)C(=O)N[C@@H](CCCNC(=N)N)C(=O)N[C@@H](Cc1c[nH]c2ccccc12)C(N)=O [CJL-1-14, Ac-His-DPhe-Arg-Trp-NH2]
[1]
  EC50: 14.1 ± 2.6 nM
[2]
  IC50: 388 ± 52 nM
[3]
  IC50: 214 ± 55 nM
